Substrate in the series: O=CC(O)COP(=O)(O)O
Description: purified protein. The note with it: catalytic pocket.

B1: human TPIIle170Thr (Homo sapiens; I171T) (protein)
chain: APSRKFFVGGNWKMNGRKQSLGELIGTLNAAKVPADTEVVCAPPTAYIDFARQKLDPKIAVAAQNCYKVTNGAFTGEISPGMIKDCGATWVVLGHSERRHVFGESDELIGQKVAHALAEGLGVIACIGEKLDEREAGITEKVVFEQTKVIADNVKDWSKVVLAYEPVWATGTGKTATPQQAQEVHEKLRGWLKSNVSDAVAQSTRIIYGGSVTGATCKELASQPDVDGFLVGGASLKPEFVDIINAKQ
Regarding B1, the Km (direct contact with residue […]) is recorded as 303 µM.

B2: human triosephosphate isomerase (TPI) (Homo sapiens) (protein)
chain: APSRKFFVGGNWKMNGRKQSLGELIGTLNAAKVPADTEVVCAPPTAYIDFARQKLDPKIAVAAQNCYKVTNGAFTGEISPGMIKDCGATWVVLGHSERRHVFGESDELIGQKVAHALAEGLGVIACIGEKLDEREAGITEKVVFEQTKVIADNVKDWSKVVLAYEPVWAIGTGKTATPQQAQEVHEKLRGWLKSNVSDAVAQSTRIIYGGSVTGATCKELASQPDVDGFLVGGASLKPEFVDIINAKQ
Regarding B2, the Km was 1373 µM.

B3: human TPIIle170Val (Homo sapiens; I171V) (protein)
chain: APSRKFFVGGNWKMNGRKQSLGELIGTLNAAKVPADTEVVCAPPTAYIDFARQKLDPKIAVAAQNCYKVTNGAFTGEISPGMIKDCGATWVVLGHSERRHVFGESDELIGQKVAHALAEGLGVIACIGEKLDEREAGITEKVVFEQTKVIADNVKDWSKVVLAYEPVWAVGTGKTATPQQAQEVHEKLRGWLKSNVSDAVAQSTRIIYGGSVTGATCKELASQPDVDGFLVGGASLKPEFVDIINAKQ
Turning to B3, the Km was determined as 687 µM.

Values taken from publication PMC3971408, “Inhibition of triosephosphate isomerase by phosphoenolpyruvate in the feedback-regulation of glycolysis” (Open Biology, 2014).
